# Measured affinities in a library of Ab-14 light chain variants

Antigen: PDVDLGDISGINAS, a 14-residue peptide of the SARS-CoV-2 spike HR2 region.

Parent: Ab-14, a human scFv built as VH, a 15-residue (Gly4Ser)3 linker, VL. Only the CDRs of the light chain vary.
VH: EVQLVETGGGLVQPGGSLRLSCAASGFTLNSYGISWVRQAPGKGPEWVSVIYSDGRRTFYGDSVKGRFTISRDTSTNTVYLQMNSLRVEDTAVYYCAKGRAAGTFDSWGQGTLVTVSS
VL: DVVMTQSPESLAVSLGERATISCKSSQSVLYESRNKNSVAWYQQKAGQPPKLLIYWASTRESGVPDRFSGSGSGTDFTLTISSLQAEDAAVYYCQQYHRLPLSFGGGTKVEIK

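This is the validation round: designs drawn from the data on random variants, tested in the same kind of assay. Group labels follow the data file (Ctrl: baseline library sampled from a position-specific scoring matrix, with some repeated check sequences; GP: Gaussian process model; HC: hill climbing; Gen: genetic algorithm; Gibbs: Gibbs sampling; a sequence that several methods proposed may carry one label only). Affinity was read by AlphaSeq, a pooled yeast mating assay with surface-displayed partners. Pairs that bind mate more often; barcode pairs of the diploids are counted by sequencing. Scores were corrected for input abundance and mapped to Kd with protein pairs of known affinity run in the same pool. Each pool was mated in six replicate cultures.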

The parent's light chain CDRs are KSSQSVLYESRNKNSVA, WASTRES, QQYHRLPLS; each variant's own CDRs replace them letter for letter. This list holds designs with at most six substitutions. The Kd shown is the geometric mean over detected replicates; a lower Kd is a better binder. "no signal" means that the variant was in the library but no mating with the target was seen in any replicate; the authors take this as a sign of poor binding, and no number exists.

The variant KSSQSVLPESRNKNSVA / QASTRES / QQYHRLPLS [Ctrl] gave 2.0 nM (6 of 6 replicates; controls 1 of 18). For KSSQSVLDESRNKNSIA / WASTRES / QQYVRLPLS [Ctrl], the assay gave 7.7 nM (6 of 6 replicates; controls 2 of 18). With KLSQSVLYESRNKNSVA / NAQTRES / QQYHRLPLS [GP_Gen] the result was 380 pM (6 of 6 replicates; controls 2 of 18). The variant KVQQSHLYESRNKNSVA / QASTRES / QQYHRLPLS [GP_Gen] gave 740 pM (6 of 6 replicates; controls 1 of 18). For KLSQSVLYESVNKNSVA / NASTRES / QQYHRLPLS [Ctrl], the assay gave 1.0 nM (6 of 6 replicates; controls 1 of 18).

The variant KSSESFLYESRNKNSVA / AASTREW / QQVHRLPLS [Ctrl] gave 150 nM (1 of 6 replicates; controls 1 of 18). The variant KVMQSVLYESRNKNNVA / NGSTREL / QQYHRLPLS [GP_Gibbs] gave 710 pM (6 of 6 replicates; controls 0 of 18). The variant KLQQSVLYESRNKNSVA / NASTRLQ / QQYHRLPLS [GP_Gen] showed 320 pM (6 of 6 replicates; controls 1 of 18). The variant KSSQSVLYESRNKNSVS / WASTRES / QQYHRLWLG [Ctrl] showed no signal (0 of 6 replicates; controls 0 of 18). With KVSQSWGYESRNKNSVA / GASTRES / QQYHRLPLS [GP_HC] the result was 680 pM (6 of 6 replicates; controls 0 of 18).

For KSMQSVLYESRNKNSVA / WASERES / CQYHRLPLS [Ctrl], the assay gave 66 nM (1 of 6 replicates; controls 0 of 18). The variant KLSQSQLYESRNKNSVA / NASQRMS / QQYHRLPLS [GP_Gen] showed 440 pM (6 of 6 replicates; controls 1 of 18). The variant KLSGSWLYESRNKNSVA / NASTRMS / QQYHRLPLS [GP_Gen] showed 2.6 nM (6 of 6 replicates; controls 0 of 18). For KLEQSTLYESRNKNSVA / NASQRER / QQYHRLPLS [GP_Gibbs], the assay gave 550 pM (6 of 6 replicates; controls 1 of 18). With KSSQSVLYEQRNKNNVA / WASTRED / QQYHRLSLS [Ctrl] the result was no signal (0 of 6 replicates; controls 0 of 18).

The variant KISQSVKFESRNKNSVA / DASTRES / QQYHRLPLS [GP_HC] gave 1.4 nM (6 of 6 replicates; controls 0 of 18). The variant KSLQSWLYESRNKNSVA / HASEREQ / QQYHRLPLS [GP_HC] showed 1.7 nM (6 of 6 replicates; controls 0 of 18). The variant KSSQSVLDESRNKNSVA / WASTRES / QQYHRLPLS [Ctrl] showed 15 nM (6 of 6 replicates; controls 0 of 18). The variant KSGCGVLYEDRNKNSVA / GASTRES / QQYHRLPLS [GP_HC] gave 400 pM (6 of 6 replicates; controls 0 of 18). For KSSQSVLYESRNKNSVA / GASTRES / QQYNRLPLK [Ctrl], the assay gave 4.9 nM (6 of 6 replicates; controls 1 of 18).

With KSSQSVLNESRNKNSVA / DASTRES / QTYHRLPLS [GP_HC] the result was 2.0 nM (6 of 6 replicates; controls 1 of 18). The variant KYSQSVFYEGRNKNSVA / WASTRES / NQYHRKPLS [Ctrl] showed no signal (0 of 6 replicates; controls 0 of 18). With KSTQSVLYESGNKNSVA / WASTRES / QQYHRLPLS [Ctrl] the result was 16 nM (5 of 6 replicates; controls 0 of 18). The variant KLEQSVDYESRNKNSVA / NASTRMS / QQYHRLPLS [GP_Gen] showed 780 pM (6 of 6 replicates; controls 3 of 18). With KLSQSVLYESRNKNSVA / HASTRFS / QQYHRLPLS [GP_Gen] the result was 3.0 nM (6 of 6 replicates; controls 0 of 18).

For KVSQSVLYESGNKNSVA / NASSRES / QQYHRLPLS [GP_HC], the assay gave 1.0 nM (6 of 6 replicates; controls 1 of 18). The variant KLSQSFPYESRNKNSVA / NASTRES / QQYHRLPLS [GP_Gen] showed 1.2 nM (6 of 6 replicates; controls 0 of 18). The variant KLSQSVLYESRLKNNVA / NASTRES / QQYHRLPLS [GP_Gen] showed 790 pM (6 of 6 replicates; controls 1 of 18). With KSLQSVPYESRNKNSVA / HASTREQ / QQYHFLPLS [GP_HC] the result was 5.5 nM (6 of 6 replicates; controls 3 of 18). For KSSLSVLYESRNKNSVA / TASTRES / QQYHRLPLS [Ctrl], the assay gave 98 nM (6 of 6 replicates; controls 1 of 18).

The variant KWSISVLYYSRNKNSVA / WASTRES / QQYHRLPLS [Ctrl] gave no signal (0 of 6 replicates; controls 0 of 18). For KVSQVYLYESRNKNSVA / GASTRES / QQYHRLPLS [GP_HC], the assay gave 670 pM (6 of 6 replicates; controls 3 of 18).

The range of this assay differs from that of the first round, and the authors advise against merging the two. The authors averaged sequences with at least three values out of six and counted those with two or fewer as poor binders. Background: pairings of all light chain designs with three empty control strains gave a value in 4% of cases (median 430 nM, 5th percentile 38 nM). Values in that range, when seen in few replicates, are hard to tell from nonspecific mating. For each scFv, signals with the empty controls are counted beside the result.

Source: Li et al. 2023 (doi:10.1038/s41467-023-39022-2), MIT Lincoln Laboratory and A-Alpha Bio; data file from the FLAb repository.